From patent US20100105694A1, “SUBSTITUTED PYRAZINONE DERIVATIVES FOR USE AS A MEDICINE” (priority 2006, published 2010)

Amino acid sequences for entries named in this document (tags omitted).
UniProt P08913, whole entry: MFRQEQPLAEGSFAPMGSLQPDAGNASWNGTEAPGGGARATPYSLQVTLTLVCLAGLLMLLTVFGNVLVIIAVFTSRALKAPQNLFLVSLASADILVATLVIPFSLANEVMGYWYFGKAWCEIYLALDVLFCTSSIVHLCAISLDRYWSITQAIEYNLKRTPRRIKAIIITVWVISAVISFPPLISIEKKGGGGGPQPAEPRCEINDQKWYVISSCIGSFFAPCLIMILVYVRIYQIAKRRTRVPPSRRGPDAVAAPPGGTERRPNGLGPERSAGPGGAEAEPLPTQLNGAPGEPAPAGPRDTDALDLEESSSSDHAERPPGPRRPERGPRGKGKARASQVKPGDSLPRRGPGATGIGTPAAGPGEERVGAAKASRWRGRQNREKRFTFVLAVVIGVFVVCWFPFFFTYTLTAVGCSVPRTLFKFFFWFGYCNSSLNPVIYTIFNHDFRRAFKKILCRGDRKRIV
UniProt P18825, whole entry: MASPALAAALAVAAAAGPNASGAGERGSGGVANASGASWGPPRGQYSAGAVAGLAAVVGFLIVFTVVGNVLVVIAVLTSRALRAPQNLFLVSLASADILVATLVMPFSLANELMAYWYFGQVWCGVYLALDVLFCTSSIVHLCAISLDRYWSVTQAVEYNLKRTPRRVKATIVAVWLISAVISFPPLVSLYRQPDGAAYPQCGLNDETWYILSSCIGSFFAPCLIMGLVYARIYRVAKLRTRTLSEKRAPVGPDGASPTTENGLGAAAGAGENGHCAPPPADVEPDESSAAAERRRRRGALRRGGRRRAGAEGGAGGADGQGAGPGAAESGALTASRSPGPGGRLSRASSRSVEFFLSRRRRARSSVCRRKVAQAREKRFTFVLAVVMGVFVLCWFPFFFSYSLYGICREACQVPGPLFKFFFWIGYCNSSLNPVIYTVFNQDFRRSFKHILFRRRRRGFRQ
UniProt P31645, whole entry: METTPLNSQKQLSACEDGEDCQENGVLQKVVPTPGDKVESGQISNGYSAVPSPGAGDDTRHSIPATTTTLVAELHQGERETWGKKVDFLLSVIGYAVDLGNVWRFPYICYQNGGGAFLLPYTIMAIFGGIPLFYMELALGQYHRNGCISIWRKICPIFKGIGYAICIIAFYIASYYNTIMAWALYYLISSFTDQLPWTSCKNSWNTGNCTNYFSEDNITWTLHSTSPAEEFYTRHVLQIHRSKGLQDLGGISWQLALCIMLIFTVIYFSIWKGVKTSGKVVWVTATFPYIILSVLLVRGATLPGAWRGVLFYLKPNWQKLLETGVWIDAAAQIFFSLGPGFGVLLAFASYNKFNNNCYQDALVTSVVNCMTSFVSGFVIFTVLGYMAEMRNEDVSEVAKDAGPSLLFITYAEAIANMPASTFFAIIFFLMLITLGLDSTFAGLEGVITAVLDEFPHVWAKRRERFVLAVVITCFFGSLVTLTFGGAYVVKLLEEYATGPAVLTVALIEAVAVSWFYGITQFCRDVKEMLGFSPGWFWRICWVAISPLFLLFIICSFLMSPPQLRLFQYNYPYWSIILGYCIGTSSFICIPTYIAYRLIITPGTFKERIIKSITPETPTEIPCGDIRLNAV

Key:
[1] = biological target: human adrenergic-α2A receptor (Homo sapiens, UniProt P08913); assay: Radioligand binding experiment for hα2A receptor ([3H]raulwolscine, CHO cell membranes); settings: [3H]raulwolscine 1 nM, membranes of CHO cells transfected with human α2A receptor
[2] = biological target: human adrenergic-α2C receptor (Homo sapiens, UniProt P18825); assay: Radioligand binding experiment for α2C-adrenoceptor ([3H]raulwolscine, CHO cell membranes); settings: [3H]raulwolscine 1 nM, membranes of CHO cells transfected with human α2C receptor
5HT-Transporter = 5HT-Transporter (Homo sapiens, UniProt P31645); assay: Binding experiment for the 5HT-transporter ([3H]paroxetine, human platelet membranes); settings: [3H]paroxetine 0.5 nM

| SMILES | h-α2A pIC50 [1] | h-α2C pIC50 [2] | h-5HTT pIC50 (5HT-Transporter) |
| --- | --- | --- | --- |
| CC(=O)Cn1ccnc(NC2CCN(CCCc3ccccc3)CC2)c1=O | 5.8 | 6.1 | <5 |
| O=c1c(N2CCN(Cc3cccc(-c4ccccc4)c3)CC2)nccn1Cc1ccccc1 | 6.9 | 6.7 | 5.1 |
